Chains of the proteins cited; added tags and fusions are not shown.
UniProt O14757, whole entry: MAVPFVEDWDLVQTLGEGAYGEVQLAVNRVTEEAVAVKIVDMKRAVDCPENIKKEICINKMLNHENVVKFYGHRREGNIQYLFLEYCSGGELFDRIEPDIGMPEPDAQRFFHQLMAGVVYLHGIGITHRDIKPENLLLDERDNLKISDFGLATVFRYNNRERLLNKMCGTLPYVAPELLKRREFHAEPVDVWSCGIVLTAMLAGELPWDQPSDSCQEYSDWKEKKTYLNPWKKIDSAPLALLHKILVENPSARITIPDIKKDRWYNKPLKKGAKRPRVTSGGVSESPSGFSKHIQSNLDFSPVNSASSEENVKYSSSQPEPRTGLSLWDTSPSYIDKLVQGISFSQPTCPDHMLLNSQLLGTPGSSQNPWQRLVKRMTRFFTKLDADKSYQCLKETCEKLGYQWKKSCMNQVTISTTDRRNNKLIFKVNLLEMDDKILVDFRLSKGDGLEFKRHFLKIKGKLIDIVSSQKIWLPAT

According to article PMC4082411:

Target: Chk1 (Homo sapiens, UniProt O14757)
Test: DiscoveRx KINOMEscan MAX binding panel ([…] wild-type kinases), duplicate single point at […]

## CN(C)CC(C)(C)COc1ccc2[nH]c(-c3cc(NC(=O)c4cnn(Cc5ccccc5)c4)c[nH]c3=O)cc2c1
  %: 99 – 100%
